Patent US7816408B2, “Calcium receptor active compounds” (NPS Pharmaceuticals, Inc., priority 2002, dated 2010)

The chains behind the UniProt entries cited, without tags or fusion partners. Residues count along the entry.
UniProt P41180, 20-1078 limits assumed: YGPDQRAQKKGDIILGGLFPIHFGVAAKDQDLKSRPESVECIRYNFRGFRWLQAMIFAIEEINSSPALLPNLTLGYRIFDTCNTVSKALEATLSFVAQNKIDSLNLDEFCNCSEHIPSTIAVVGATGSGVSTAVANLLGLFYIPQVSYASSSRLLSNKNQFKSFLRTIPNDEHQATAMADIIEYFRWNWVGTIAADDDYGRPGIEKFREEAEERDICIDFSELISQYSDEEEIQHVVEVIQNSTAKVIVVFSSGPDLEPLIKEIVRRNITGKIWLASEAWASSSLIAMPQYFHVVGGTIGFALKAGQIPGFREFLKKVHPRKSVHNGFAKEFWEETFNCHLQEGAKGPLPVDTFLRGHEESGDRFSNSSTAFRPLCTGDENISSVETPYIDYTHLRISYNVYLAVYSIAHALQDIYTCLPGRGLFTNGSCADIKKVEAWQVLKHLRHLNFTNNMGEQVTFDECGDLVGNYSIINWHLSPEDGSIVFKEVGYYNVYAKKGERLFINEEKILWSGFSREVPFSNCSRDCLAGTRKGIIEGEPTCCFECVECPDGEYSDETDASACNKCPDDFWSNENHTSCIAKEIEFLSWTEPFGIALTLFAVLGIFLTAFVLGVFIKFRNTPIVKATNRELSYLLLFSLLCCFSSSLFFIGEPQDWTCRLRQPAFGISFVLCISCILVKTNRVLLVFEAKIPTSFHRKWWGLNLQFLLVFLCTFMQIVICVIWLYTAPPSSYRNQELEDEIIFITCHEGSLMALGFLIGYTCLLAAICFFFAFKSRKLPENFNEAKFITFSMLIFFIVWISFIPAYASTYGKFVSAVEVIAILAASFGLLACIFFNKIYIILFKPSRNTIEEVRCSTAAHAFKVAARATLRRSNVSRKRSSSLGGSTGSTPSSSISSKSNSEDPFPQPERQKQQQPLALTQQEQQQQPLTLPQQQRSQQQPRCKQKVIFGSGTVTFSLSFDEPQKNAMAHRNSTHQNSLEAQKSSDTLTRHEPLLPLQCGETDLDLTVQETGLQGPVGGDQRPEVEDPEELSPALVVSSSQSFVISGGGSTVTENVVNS

What follows are compounds tested against human calcium receptor (Homo sapiens, UniProt P41180) (assay: Activity on calcium receptors: fluo-3 fluorescence in HEK293 cells transfected with human calcium receptor gene). Details: HEK293 cells transfected with plasmid pHuPCaR4.0 (human calcium receptor gene), loaded with fluo-3; 1 mM CaCl2, 1 mM MgCl2.
Method: The activities of the compounds of the present invention on calcium receptors were measured. The measurement was performed in accordance with the method described in Example 4 of Nemeth et al., PCT/US95/13704 (International Publication No. WO96/12697). In brief, HEK293 cells were transfected with a plasmid pHuPCaR4.0 containing a human calcium receptor gene and loaded with fluo-3. The loading was carried out by incubating the cells at 37° C. for 1 hour in Dulbecco's modified Eagle's medium which contained about 5 μM of fluo-3/AM and had been buffered with 20 mM HEPES. Next, the cells were rinsed with Hank's balanced salt solution which contained 1 mM CaCl2 and 1 mM MgCl2 and had been buffered with 20 mM HEPES. Then each test compound was added to the cells and the fluorescence was measured with the use of an excitation wavelength of 485 nm and an emission wavelength of 540 nm.
`COc1cccc([C@@H](C)NCCCCSc2nc3ccccc3o2)c1` showed an EC50 of 140 nM. In the case of `COc1cccc([C@@H](C)NCCCCSc2ccccc2Cl)c1`, the EC50 is reported as 310 nM. For `COc1cccc([C@@H](C)NCCCCCCSc2nc3ccccc3o2)c1`, the EC50 was 930 nM. `COc1cccc([C@@H](C)NCCCOc2ccc3[nH]cc(C)c3c2)c1` showed an EC50 of 480 nM. For `Cc1c[nH]c2ccc(OCCCN[C@H](C)c3cccc4ccccc34)cc12`, the EC50 was 1600 nM. Compound `C[C@@H](NCCCOC1c2ccccc2-c2ccccc21)c1cccc2ccccc12` has an EC50 of 64 nM. In the case of `C[C@@H](NCCCOc1ccc2oc3ccccc3c2c1)c1cccc2ccccc12`, the EC50 is reported as 270 nM. With `CCn1c2ccccc2c2cc(NCCCN[C@H](C)c3cccc4ccccc34)ccc21` the EC50 was 200 nM. In the case of `C[C@@H](NCCC(=O)N1Cc2ccccc2SCC1c1ccccc1)c1cccc2ccccc12` (stereo partly drawn), the EC50 is reported as 100 nM. `COc1cccc([C@@H](C)NCCCCCSc2nc3ccccc3o2)c1` gave an EC50 of 150 nM. `C[C@@H](NCC[S+]([O-])c1cc(Cl)ccc1Cl)c1cccc2ccccc12` (stereo partly drawn) showed an EC50 of 910 nM. `COc1cccc([C@@H](C)NCCCOc2ccc3c(c2)oc2ccccc23)c1` showed an EC50 of 270 nM.
